How the values were obtained:
AR-Luc/LNCaP cells [1] = conditions: 24 h treatment
AR-Luc/LNCaP cells [2] = type: cell-based

Structure (SMILES) | cell viability / cytotoxicity (AR-Luc/LNCaP cells [1]) | stimulation of AR-Luc reporter activity by agonist (AR-Luc/LNCaP cells [2]) | time to maximal AR-Luc reporter activity (AR-Luc/LNCaP cells [2])
O=c1oc2c(O)c(O)cc3c(=O)oc4c(O)c(O)cc1c4c23 [EA, ellagic acid] | without cellular toxicity | – | –
C[C@]12CCC(=O)C[C@@H]1CC[C@@H]1[C@@H]2CC[C@]2(C)[C@@H](O)CC[C@@H]12 [DHT, dihydrotestosterone] | – | stimulated | 24 h

— publication PMC10380868, “Trapa bispinosa Roxb. Pericarp Extract Exerts 5α-Reductase Inhibitory Activity in Castrated Benign Prostatic Hyperplasia Model Mice” (International Journal of Molecular Sciences, 2023)
